# Values of other authors as cited in US10905781B2, “Reporter platform for real time monitoring of drug efficacy” (THE BRIGHAM AND WOMEN'S HOSPITAL, INC., priority 2016, dated 2021).
# Details: patients with a wild type KRAS; cited from earlier work
substance,measurement,value
cetuximab: anticancer drug cited in the background,patients who do not respond,40-60%
